FN deposit inh: fibronectin deposition inhibition | AH1F fibroblasts, Alexa488-fibronectin deposition fluorescence, overnight | inhibition, % at 12.6 µM | 350,000 tested, 0.086% active;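 active = mean inhibition across replicates of 30% or more, regardless of how many single replicates reach that level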
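Assay system: AH1F fibroblast monolayer, labelled fibronectin deposition. Amount: 10000 cells per well. Also added: labelled fibronectin 24 nM. Compound: single-point pinned compound. Incubation: cell attachment 1 h, compound and FN exposure overnight. Detection: fluorescence after three HBSS washes, excitation 485 nm, emission 525 nm. Read-out: inhibition of fibronectin deposition signal.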
PGC1a acetyl inh: modulators of PGC1a acetylation | U2OS PGC1a acetylation, AlphaScreen anti-acetyl-lysine; with virally co-expressed GCN5 acetyltransferase | inhibition, % at 15.6 µM | 350,000 tested, 0.17% active;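 active = every replicate shows inhibition of at least 40%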
UUG fidelity: alters start codon recognition fidelity in yeast | S. cerevisiae UUG-firefly luciferase reporter, luminescence/redox ratio | activity score, % at 18.7 µM | 350,000 compounds, 0.13% hits | AID 602363;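 active = replicate mean at a twofold rise or more, about +100% in these data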;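 note: firefly luciferase made from a UUG start codon reports start codon fidelity; reporter light over untreated wells divided by growth signal over untreated wells; some hits fall short of that in this replicate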
iPSC survival up: increases survival of single human iPS cells. survival enhancement, % at 20 µM. AID 602274. hiPSC single-cell survival, ATPlite luminescence; 100% = ROCK inhibitor wells, 0% = DMSO. 360,000 tested, 0.044% active; in the data active = survival enhancement above about 18%;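 also: cells exposed to compounds for 16 hours before the ATP read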
Statin myotox sup: suppressors of simvastatin-induced myotoxicity in C2C12 myotubes | 330,000 tested, 0.78% active | rescue of ATP level, % at 7.49 µM | ATP luminescence, 48 h; scaled: DMSO 0, geranylgeraniol control 100 | AID 602340;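 active = mean ATP rescue above about 67%, or every replicate alone reaching that limit, limit read from the data, passing the limit was not always enough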;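 also: myotubes were challenged with 10 µM simvastatin during compound exposure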
Hits are given with their value; 0 = inactive; - = no result. Hits are enriched below; roughly 0.91% of the tested compounds scored in any of these assays.

SMILES	FN deposit inh	PGC1a acetyl inh	UUG fidelity	iPSC survival up	Statin myotox sup
CCCNC(=O)N1CCC2(CC1)CN(C(=O)CC1CC1)[C@H](CO)c1c2c2ccc(OC)cc2n1C	0	-	-	-	-
O=C(CSc1nc2ccccc2[nH]1)Nc1ccc2c(c1)OCCO2	-	0	0	0	117.4
O=C(CSc1ncn(-c2ccccc2)n1)Nc1ccc2c(c1)OCCO2	-	0	0	0	100.9
O=C(CSc1ccc2c(c1)OCCO2)Nc1ccc(Br)cc1	-	0	0	0	102.1
CCN(C(=O)COC(=O)c1cnc(C)cn1)C1CCCCC1	-	0	0	0	134.6
COc1ccc(NC(=O)CSc2nnc(-c3ccccc3Cl)n2Cc2ccco2)c(OC)c1	-	0	0	0	115.0
COc1ccc(NC(=O)CSc2nnc(-c3ccccc3)n2Cc2ccco2)c(OC)c1	-	0	0	0	0
Cc1ccc(Nc2nc3nonc3nc2N(C)C)cc1	-	0	0	0	88.1
CCNc1nc2nonc2nc1NCC	-	0	0	0	0
C[C@@H]1CN([C@H](C)CO)S(=O)(=O)c2ccc(-c3ccc(C#N)cc3)cc2O[C@@H]1CN(C)C	-	0	0	-	0
COc1ccc(C#Cc2ccc3c(c2)O[C@H](CN(C)C(=O)Nc2cccc(OC)c2)[C@H](C)CN([C@@H](C)CO)S3(=O)=O)cc1	0	0	0	-	72.9
COc1ccccc1C#Cc1ccc2c(c1)O[C@@H](CN(C)Cc1cccnc1)[C@H](C)CN([C@@H](C)CO)S2(=O)=O	0	44.4	-	-	0
C[C@H]1CN([C@@H](C)CO)S(=O)(=O)c2ccc(C#Cc3ccc(F)cc3)cc2O[C@@H]1CN(C)S(=O)(=O)c1cn(C)cn1	-	0	0	-	74.0
COc1cccc(NC(=O)N(C)C[C@@H]2Oc3ncc(C#Cc4ccc(F)cc4)cc3C(=O)N([C@@H](C)CO)C[C@H]2C)c1	0	0	0	-	72.5
O=C(C[C@H]1C[C@@H]2c3cc(NS(=O)(=O)c4ccccc4)ccc3O[C@@H]2[C@H](CO)O1)N1CCCCC1	0	0	0	-	0
C[C@@H]1CN([C@@H](C)CO)S(=O)(=O)c2ccc(/C=C/c3ccccc3)cc2O[C@@H]1CN(C)C(=O)NC1CCCC1	0	0	0	-	92.6
C[C@H](CO)N1C[C@H](C)[C@H](CN(C)C(=O)NC2CCCC2)Oc2cc(/C=C/c3ccccc3)ccc2S1(=O)=O	0	0	0	-	0
C[C@H](CO)N1C[C@H](C)[C@H](CN(C)C(=O)Nc2cc(F)ccc2F)Oc2cc(C#CC3CC3)ccc2S1(=O)=O	-	0	-	-	74.8
C[C@@H]1CN([C@@H](C)CO)S(=O)(=O)c2ccc(C#CC3CC3)cc2O[C@@H]1CN(C)C(=O)Nc1cc(F)ccc1F	-	0	-	-	0
CN(C)C(=O)C[C@@H]1CC[C@@H](NC(=O)Nc2cccc(F)c2)[C@@H](CO)O1	0	0	0	-	0
Cn1ncc2c(O/N=C(\N)c3ccc(C(C)(C)C)cc3)ncnc21	-	95.9	0	0	-
CCOC(=O)c1ccc(Nc2ncnc3c2cnn3C)cc1	0	0	0	0	0
O=C(NCCN1CCOCC1)c1c[nH]c2ccc(S(=O)(=O)N3CCOCC3)cc2c1=O	-	0	0	0	-
O=C(Nc1ccc(S(=O)(=O)N2CCOCC2)cc1)c1cc(S(=O)(=O)N2CCOCC2)ccc1Cl	0	0	0	0	0
O=C(Nc1ccncc1)c1cc(S(=O)(=O)N2CCOCC2)ccc1Cl	0	0	0	25.6	0
SMILES	FN deposit inh	PGC1a acetyl inh	UUG fidelity	iPSC survival up	Statin myotox sup
O=C(Nc1cccc(S(=O)(=O)C(F)F)c1)c1ccc(S(=O)(=O)N2CCOCC2)cc1	-	0	0	0	95.4
O=C(O)c1c[nH]c2ccc(S(=O)(=O)N3CCOCC3)cc12	0	0	0	0	107.1
COc1cccc(-c2ccc3c(c2)O[C@@H](CN(C)C)[C@H](C)CN([C@@H](C)CO)S3(=O)=O)c1	-	0	0	-	0
C[C@H]1CN([C@@H](C)CO)C(=O)Cc2cc(NC(=O)CCN3CCOCC3)ccc2O[C@H]1CN(C)CC1CCCCC1	-	0	0	-	0
COCCNC(=O)C(c1ccc(C)o1)N(Cc1ccc(F)cc1)C(=O)Cn1nnc2ccccc21 (stereo unspecified)	-	0	0	0	0
COCCNC(=O)C(c1ccc(C)o1)N(Cc1ccc(OC)cc1)C(=O)Cn1nnc2ccccc21 (stereo unspecified)	0	0	0	0	103.8
COC(=O)c1cn(Cc2ccc(C(F)(F)F)cc2)cc(F)c1=O	0	0	0	0	102.6
COC(=O)c1ccc(Cn2cc(C(F)(F)F)ccc2=O)cc1	0	0	-	0	-
O=C(c1ccc2c(c1)CCN2S(=O)(=O)c1ccccc1)N1CCN(c2ccc(F)cc2)CC1	0	0	0	0	0
CC(=O)Nc1ccc(NC(=O)c2ccc3c(c2)CCN3S(C)(=O)=O)cc1	0	0	0	0	0
CC(C)c1ccc(NC(=O)c2ccc3c(c2)CCN3S(C)(=O)=O)cc1	0	81.9	0	0	0
COc1ccc(N2CCN(C(=O)c3ccc4c(c3)CCN4S(=O)(=O)c3ccccc3)CC2)cc1	0	0	0	0	133.6
CS(=O)(=O)N1CCc2cc(C(=O)N3CCOCC3)ccc21	-	0	0	0	97.8
CS(=O)(=O)N1CCc2cc(C(=O)N3CCCCC3)ccc21	-	0	0	0	0
C[C@@H]1CN([C@@H](C)CO)C(=O)c2cc(C#Cc3ccccc3F)cnc2O[C@@H]1CN(C)C(=O)Cc1ccncc1	-	0	0	-	0
C[C@@H]1CN([C@@H](C)CO)C(=O)c2cccc(NC(=O)c3cnccn3)c2O[C@@H]1CN(C)Cc1ccc(C(=O)Nc2ccccc2N)cc1	0	0	0	-	0
COc1cccc(NC(=O)N(C)C[C@@H]2Oc3cc(C#CC4(O)CCCC4)ccc3S(=O)(=O)N([C@H](C)CO)C[C@H]2C)c1	0	0	-	-	0
CCOc1ccccc1OCCOc1ccccc1CC	-	0	0	0	127.7
CCOc1ccccc1OCCOc1ccccc1OC(C)C	-	0	0	0	-
Cc1noc(C)c1S(=O)(=O)N(C)C[C@@H]1Oc2ccc(NC(=O)NC(C)C)cc2CC(=O)N([C@H](C)CO)C[C@H]1C	-	0	0	-	0
CCc1nnc(N/N=C/c2ccccc2Cl)n1N	-	72.1	0	0	0
CCc1nnc(N/N=C/c2ccccc2F)n1N	0	-	-	0	-
O=C(C[C@H]1C[C@@H]2c3cc(NS(=O)(=O)c4ccc(F)cc4)ccc3O[C@@H]2[C@@H](CO)O1)NCC1CC1	0	0	0	-	0
Cc1noc(C)c1S(=O)(=O)Nc1ccc2c(c1)C(=O)N([C@@H](C)CO)C[C@H](C)[C@H](CN(C)Cc1ccc3c(c1)OCO3)O2	0	0	0	-	75.8
Cc1noc(C)c1S(=O)(=O)Nc1ccc2c(c1)C(=O)N([C@H](C)CO)C[C@@H](C)[C@@H](CN(C)S(=O)(=O)c1ccc(Cl)cc1)OCCCC[C@H](C)O2	0	-	0	-	101.2
Cc1noc(C)c1S(=O)(=O)Nc1ccc2c(c1)C(=O)N([C@@H](C)CO)C[C@@H](C)[C@H](CN(C)Cc1ccc(Cl)c(Cl)c1)OCCCC[C@@H](C)O2	-	0	0	-	120.8

High-throughput results (PubChem BioAssay)
